Where a name gives a salt, the structure may show the parent alone. Read-outs that look alike come from different tables or passages of the source.
Tests used:
SARS-CoV-2 3CLpro [1] = target: T1, SARS-CoV-2 3CLpro (Severe acute respiratory syndrome coronavirus 2, UniProt P0DTD1); conditions: for Replicate_2 (LOPAC_screen_w_protease): replicate 2
SARS-CoV-2 3CLpro [2] = target: T1, SARS-CoV-2 3CLpro; test: biochemical; conditions: 4 h
[3] = LOPAC1280 primary screen with protease, 5 µM compound
[4] = read-out: Replicate_1 (LOPAC_screen_w_protease)
[5] = read-out: Replicate_2 (LOPAC_screen_w_protease)
[6] = read-out: Replicate_1 (LOPAC screen with protease)
[7] = read-out: Replicate_2 (LOPAC screen with protease)
[8] = read-out: mean (LOPAC screen with protease)

Row | SMILES | inhibition at 5 µM (SARS-CoV-2 3CLpro [2]; read-out: Replicate_1) | inhibition at 5 µM (SARS-CoV-2 3CLpro [2]; read-out: Replicate_2) | inhibition at 5 µM (SARS-CoV-2 3CLpro [2]; read-out: mean) | mean (LOPAC_screen_w_protease) (SARS-CoV-2 3CLpro [1]) | inhibition at 5 µM (SARS-CoV-2 3CLpro [2]; [4]) | inhibition at 5 µM (SARS-CoV-2 3CLpro [2]; [5]) | further results
1 | Br.COc1ccc2c(c1)[C@]13CCCC[C@@H]1[C@H](C2)N(C)CC3.O |  |  |  |  |  |  | Replicate_2 (LOPAC_screen_w_protease) (SARS-CoV-2 3CLpro [1]; [3]): 2.52
2 | NCC(O)(CS(=O)(=O)O)c1ccc(Cl)cc1 (stereo not drawn) [2-Hydroxysaclofen] |  |  |  |  |  |  | Replicate_1 (SARS-CoV-2 3CLpro [1]; sheet LOPAC_screen_w_protease, LOPAC1280 primary screen at 5 µM, with protease, replicate 1): 2.518
3 | COc1cc2c(cc1O)CC[C@@H]1[C@@H]2CC[C@]2(C)[C@@H](O)CC[C@@H]12 [2-methoxyestradiol] | 1.84% | 3.11% | 2.47% |  |  |  | 
4 | Cc1cn[nH]c1.Cl [4-Methylpyrazole hydrochloride] |  |  |  |  |  |  | Replicate_1 (SARS-CoV-2 3CLpro [1]; sheet LOPAC_screen_w_protease, LOPAC1280 primary screen with protease, 5 µM compound, replicate 1): 2.521
5 | O=c1[nH]cc(F)c(=O)[nH]1 [5-Fluorouracil] |  |  |  | 1.797 | 3.6% | -0.00964% | 
6 | CC1=C(/C=C/C(C)=C/C=C/C(C)=C\C(=O)O)C(C)(C)CCC1 [13-cis-retinoic acid] | 0.251% | 1.13% | 0.693% |  |  |  | 
7 | CC(C)(C)[C@]1(O)CCN2C[C@H]3c4ccccc4CCc4cccc(c43)[C@@H]2C1 [(+)-Butaclamol hydrochloride] | 2.49% | -1.87% | 0.31% |  |  |  | 
8 | CN(C)CC[C@@H](c1ccc(Cl)cc1)c1ccccn1 [(+)-Chlorpheniramine maleate] |  |  |  | 1.673 | 2.03% | 1.32% | 
9 | COc1ccc2cc([C@H](C)C(=O)[O-])ccc2c1.[Na+] [(-)-Naproxen sodium] |  |  |  |  |  |  | Replicate_1 (SARS-CoV-2 3CLpro [1]): 2.524
10 | Oc1ncnc2[nH]ncc12 [Allopurinol] | 1.76% | 2.63% | 2.19% |  |  |  | 
11 | NCCCNCCSP(=O)(O)O [Amifostine] |  |  |  | 2.129 | 2.71% | 1.55% | 
12 | CN1CCc2cccc3c2[C@H]1Cc1ccc(O)c(O)c1-3 [Apomorphine hydrochloride hemihydrate] |  |  |  |  |  |  | inhibition at 5 µM (SARS-CoV-2 3CLpro [2]; [6]): 99.5%; inhibition at 5 µM (SARS-CoV-2 3CLpro [2]; [7]): 101%; inhibition at 5 µM (SARS-CoV-2 3CLpro [2]; [8]): 100%
13 | NC(CO)C(=O)NNCc1ccc(O)c(O)c1O (stereo not drawn) [Benserazide hydrochloride] |  |  |  |  |  |  | inhibition at 5 µM (SARS-CoV-2 3CLpro [2]; [6]): 73.3%; inhibition at 5 µM (SARS-CoV-2 3CLpro [2]; [7]): 70.5%; inhibition at 5 µM (SARS-CoV-2 3CLpro [2]; [8]): 71.9%
14 | C[N+](C)(C)CC=O [Betaine aldehyde chloride] |  |  |  | 1.378 | 0.633% | 2.12% | 
15 | C[C@H]1C[C@H]2[C@@H]3CCC4=CC(=O)C=C[C@]4(C)[C@@]3(F)[C@@H](O)C[C@]2(C)[C@@]1(O)C(=O)CO [Betamethasone] |  |  |  | 2.104 | 1.35% | 2.86% | 
16 | CCc1cccc(N(C)C(N)=Nc2cccc3ccccc23)c1 [CNS-1102] | 1.29% | -0.535% | 0.379% |  |  |  | 
17 | CO/N=C(\C(=O)N[C@@H]1C(=O)N2C(C(=O)O)=C(CSc3nc(=O)c(=O)[nH]n3C)CS[C@H]12)c1csc(N)n1 [Ceftriaxone sodium] |  |  |  | 2.1257 | 1.37% | 2.88% | 
18 | O=C(O)CCCc1ccc(N(CCCl)CCCl)cc1 [Chlorambucil] | 2.39% | 3.29% | 2.84% |  |  |  | 
19 | C#CCN(C)CCCOc1ccc(Cl)cc1Cl [Clorgyline hydrochloride] | 5.98% | 4.2% | 5.09% |  |  |  | 
20 | COc1cc2c(c(OC)c1OC)-c1ccc(OC)c(=O)cc1[C@@H](NC(C)=O)CC2 [Colchicine] | 1.98% | -0.526% | 0.728% |  |  |  | 
21 | C[C@]12C[C@H](O)[C@H]3[C@@H](CCC4=CC(=O)CC[C@@]43C)[C@@H]1CC[C@@H]2C(=O)CO [Corticosterone] | 0.575% | 0.162% | 0.369% |  |  |  | 
22 | O=C1CN(/N=C/c2ccc(-c3ccc([N+](=O)[O-])cc3)o2)C(O)=N1 [Dantrolene sodium] | 5.37% | 2.64% | 4.01% |  |  |  | 
23 | O=c1ccc2ccc(O)c(O)c2o1 [Daphnetin] | 4.21% | 7.22% | 5.72% |  |  |  | 
24 | O=C(CCCN1CC=C(n2c(=O)[nH]c3ccccc32)CC1)c1ccc(F)cc1 [Droperidol] |  |  |  | 1.965 | 2.54% | 1.39% | 
25 | NC(N)=Nc1nc(CSCCC(N)=NS(N)(=O)=O)cs1 [Famotidine] |  |  |  | 1.453 | 2.1% | 0.811% | 
26 | NS(=O)(=O)c1cc(C(=O)O)c(NCc2ccco2)cc1Cl [Furosemide] | 4.58% | 1.05% | 2.82% |  |  |  | 

Row | SMILES | inhibition at 5 µM (SARS-CoV-2 3CLpro [2]; read-out: Replicate_1) | inhibition at 5 µM (SARS-CoV-2 3CLpro [2]; read-out: Replicate_2) | inhibition at 5 µM (SARS-CoV-2 3CLpro [2]; read-out: mean) | mean (LOPAC_screen_w_protease) (SARS-CoV-2 3CLpro [1]) | inhibition at 5 µM (SARS-CoV-2 3CLpro [2]; [4]) | inhibition at 5 µM (SARS-CoV-2 3CLpro [2]; [5]) | further results
27 | CC(=O)[C@]1(O)Cc2c(O)c3c(c(O)c2[C@@H](O[C@H]2C[C@H](N)[C@H](O)[C@H](C)O2)C1)C(=O)c1ccccc1C3=O [Idarubicin, reference compound] |  |  |  |  |  |  | inhibition at 5 µM (SARS-CoV-2 3CLpro [2]; [6]): 49.5%; inhibition at 5 µM (SARS-CoV-2 3CLpro [2]; [7]): 46.4%; inhibition at 5 µM (SARS-CoV-2 3CLpro [2]; [8]): 47.9%
28 | CC(=O)N1CCN(c2ccc(OCC3COC(Cn4ccnc4)(c4ccc(Cl)cc4Cl)O3)cc2)CC1 (stereo not drawn) [Ketoconazole] |  |  |  | 1.861 | 2.9% | 0.821% | 
29 | CC(CCc1ccccc1)NCC(O)c1ccc(O)c(C(N)=O)c1 (stereo not drawn) [Labetalol hydrochloride] |  |  |  | 1.52 | 1.53% | 1.51% | 
30 | CCN(CC)CC(=O)Nc1c(C)cccc1C [Lidocaine hydrochloride] |  |  |  | 1.695 | 2.11% | 1.28% | 
31 | N[C@@H](Cc1ccc(N(CCCl)CCCl)cc1)C(=O)O [Melphalan] |  |  |  | 1.588 | 2.15% | 1.03% | 
32 | CC12CC3CC(C)(C1)CC(N)(C3)C2 [Memantine hydrochloride] | 4.92% | 1.8% | 3.36% |  |  |  | 
33 | CN(Cc1cnc2nc(N)nc(N)c2n1)c1ccc(C(=O)N[C@@H](CCC(=O)O)C(=O)O)cc1 [Methotrexate] | 0.384% | 0.0465% | 0.215% |  |  |  | 
34 | CC[C@@H](CO)NC(=O)[C@@H]1C=C2c3cccc4c3c(cn4C)C[C@H]2N(C)C1 [Methysergide maleate] | 2.96% | 3.5% | 3.23% |  |  |  | 
35 | CN1CCN2c3ccccc3Cc3ccccc3C2C1 (stereo not drawn) [Mianserin hydrochloride] |  |  |  |  |  |  | inhibition at 5 µM (SARS-CoV-2 3CLpro [2]; [6]): 11.1%; inhibition at 5 µM (SARS-CoV-2 3CLpro [2]; [7]): 9.35%; inhibition at 5 µM (SARS-CoV-2 3CLpro [2]; [8]): 10.2%
36 | [H]/N=C(/NC)NCCC[C@H](N)C(=O)O [NG-Monomethyl-L-arginine acetate] | 3.11% | 2.2% | 2.66% |  |  |  | 
37 | CN1Cc2c(N)cccc2C(c2ccccc2)C1 (stereo not drawn) [Nomifensine maleate] |  |  |  | 1.94 | 3.97% | -0.0859% | 
38 | COc1ccc2c(c1OC)C(=O)O[C@@H]2[C@H]1c2c(cc3c(c2OC)OCO3)CCN1C.Cl [Noscapine hydrchloride] |  |  |  |  |  |  | Replicate_2 (LOPAC_screen_w_protease) (SARS-CoV-2 3CLpro [1]; [3]): 2.517
39 | C#CCN(C)Cc1ccccc1 [Pargyline hydrochloride] | 0.662% | -1.07% | -0.205% |  |  |  | 
40 | CNC[C@H](O)c1cccc(O)c1 [Phenylephrine hydrochloride] |  |  |  | 1.841 | 1.35% | 2.33% | 
41 | CCC1(c2ccccc2)C(=O)NCNC1=O [Primidone] | -0.0045% | -1.59% | -0.8% |  |  |  | 
42 | C[C@@]1(C2CCCC2)Cc2cc(OCC(=O)O)c(Cl)c(Cl)c2C1=O [R(+)-IAA-94] |  |  |  |  |  |  | Replicate_1 (SARS-CoV-2 3CLpro [1]; sheet LOPAC_screen_w_protease, primary screen with protease, compound at 5 µM, replicate 1): 2.519
43 | CC1=C(/C=C/C(C)=C/C=C/C(C)=C/C(=O)O)C(C)(C)CCC1 [Retinoic acid] |  |  |  | 2.047 | 2.57% | 1.52% | 
44 | NC(=O)c1ncn([C@@H]2O[C@H](CO)[C@@H](O)[C@H]2O)n1 [Ribavirin] |  |  |  | 1.951 | 2.8% | 1.1% | 
45 | CCCN(CCC)CCc1cccc2c1CC(=O)N2 [Ropinirole hydrochloride] | 2.32% | -2.17% | 0.0748% |  |  |  | 
46 | OCc1cc(C(O)CNCCCCCCOCCCCc2ccccc2)ccc1O (stereo not drawn) [Salmeterol xinafoate] | 2.01% | 2.68% | 2.35% |  |  |  | 
47 | CC(=O)S[C@@H]1CC2=CC(=O)CC[C@]2(C)[C@H]2CC[C@@]3(C)[C@@H](CC[C@@]34CCC(=O)O4)[C@H]12 [Spironolactone] | 0.656% | 1.74% | 1.2% |  |  |  | 
48 | CC1=C(CC(=O)O)c2cc(F)ccc2/C1=C\c1ccc([S+](C)[O-])cc1 (stereo not drawn) [Sulindac] | 1.65% | 3.88% | 2.76% |  |  |  | 
49 | COc1cc2nc(N3CCN(C(=O)C4CCCO4)CC3)nc(N)c2cc1OC (stereo not drawn) [Terazosin hydrochloride] | 2.48% | 2.75% | 2.62% |  |  |  | 
50 | CNCC[C@@H](Oc1ccccc1C)c1ccccc1 [Tomoxetine] | 0.333% | 1.98% | 1.16% |  |  |  | 
51 | CC[C@]1(O)C[C@H]2CN(CCc3c([nH]c4ccccc34)[C@@](C(=O)OC)(c3cc4c(cc3OC)N(C=O)[C@H]3[C@@](O)(C(=O)OC)[C@H](OC(C)=O)[C@]5(CC)C=CCN6CC[C@]43[C@@H]65)C2)C1 [Vincristine sulfate] | -1.48% | 1.23% | -0.124% |  |  |  | 
52 | OCCN(CCO)c1nc(N2CCCCC2)c2nc(N(CCO)CCO)nc(N3CCCCC3)c2n1 [dipyridamole, reference compound] | -17% | -19.1% | -18% |  |  |  | 
